From PMC5962653 (Frontiers in Microbiology, 2018) come the findings set out here.

Series [1] relates to K. pneumoniae VIM-1 strain. The following applies: free serum AUC0-24 of healthy mice over MIC of the VIM-1 strain. As for the experimental part: A previously described murine peritoneal sepsis model was used ([Parra Millan et al., 2016]). Briefly, groups of un-anesthetized C57BL/6 mice were infected by ip injection of 0.5 mL of the Minimal Lethal Dose (MLD) of each strain, corresponding to (log10 cfu/mL): 8.97, 8.94 9.35, and 8.38 for VIM-1, VIM-1/DHA-1, OXA-48 plus CTX-M-15, and KPC-3 strains, respectively. Treatments were initiated 4 h post-inoculation. […] Afterward, mice were treated and monitored for 72 h. […] Samples were extracted and processed immediately after the death of mice; the survivor mice were sacrificed (sodium thiopental) at the 72 h. Aseptic thoracotomies were carried out, and blood samples were obtained for qualitative blood cultures; results were expressed as positive (≥1 cfu present in the plate) or negative. Spleens were aseptically extracted, weighed, and homogenized in sterile saline (Stomacher 80; Tekmar Co., Cincinnati, OH, United States) before quantitative cultures (log10 cfu/g) in Columbia agar with 5% sheep blood plates.
(§1) Mortality and bacteremia rates are expressed as percentages and bacterial tissue concentrations (log10 cfu/g) as means ±SD. The two-tailed Fisher’s test, analysis of variance (ANOVA), and the Dunnet and Tukey post hoc tests were used. A P < 0.05 was considered significant. The SPSS v22.0 statistical package was used (SPSS Inc).

Series [2] deals with K. pneumoniae OXA-48 plus CTX-M-15 strain. To be noted: free serum AUC0-24 of healthy mice over MIC of the OXA-48 plus CTX-M-15 strain. As for the experimental part:
A previously characterized murine pneumonia model was used ([Pachon-Ibanez et al., 2010]; [Docobo-Perez et al., 2012]; [Parra Millan et al., 2016]) with the OXA-48 plus CTX-M-15 strain, as OXA-48 is the most prevalent carbapenemase in Spain nowadays ([Palacios-Baena et al., 2016]). Anesthetized mice were infected intratracheally, using 50 μl of a final inoculum of 8.18 log10 cfu/mL. Therapies were initiated 4 h post-infection and treatment groups and dosages were the same as in the peritoneal sepsis model. Mice were treated and monitored over 72 h. After death or sacrifice of the mice at 72 h, blood and lungs samples were aseptically obtained and processed as detailed above.
as §1

For colistimethate sodium [CMS], the fAUC0-24/MIC in series [1] and in series [2] was 2.30 throughout.
